For 74 compounds, relative growth results are on record in published antibiotic growth screens (doi:10.1038/s41589-023-01349-8).

The structures appear in SMILES notation. The list shows a part of the results.

The subject of this experiment is A. baumannii ATCC 17978. The experiment in a line: relative growth (fraction of control); higher = less inhibition. To be noted: 50 µM.
In the case of `Cc1ccc(C2(CN)CCCCC2)cc1`, the relative growth is 0.718.
The same measure for `C[N+]1(C)C2CCC1CC(OC(=O)C(CO)c1ccccc1)C2.O=[N+]([O-])[O-]` (centres undefined): 1; for `C[C@H]1C(=O)O[C@@H]2CCN3CC=C(COC(=O)[C@](C)(O)[C@]1(C)O)[C@H]23`: 0.931.
To `CC(C)=CCCC1(C)C=Cc2c(O)c3c(c(CC=C(C)C)c2O1)OC12C(=CC4CC1C(C)(C)OC2(C/C=C(/C)C(=O)O)C4O)C3=O` (centres undefined) belongs 0.96.
To `O=S1(=O)COC2(CNC2)CN1` belongs 1.08.
Take `ClC=C(Cl)Cl`: the relative growth is 0.975.
In turn, `CCCC12CNCC(C)(CNC1)C2=O` had a relative growth of 1.05.
To `CCCCC1C(=O)NC(=S)NC1=O` belongs 0.8; to `Cc1cc([N+](=O)[O-])cnc1N1CCNCC1`, 0.969; to `CO[C@]12C[C@@H](COC(=O)c3cncc(Br)c3)CN(C)[C@@H]1Cc1cn(C)c3cccc2c13`, 1.09.
The same measure for `O=C([O-])CCCO.[Na+]`: 0.971.
The compound `CC[C@@H](CN)c1ccccc1` showed a relative growth of 1.05.
To `Cn1c(CCN)nc2ccccc21` belongs 0.988.
Compound `COc1cc2c(cc1OC)[C@@H]1C(=O)c3ccc4oc(C(C)C)cc4c3O[C@@H]1CO2` showed a relative growth of 0.904.
The same measure for `COc1cc2c(c(OC)c1OC)-c1ccc(O)c(=O)cc1[C@@H](NC(C)=O)CC2`: 0.995; for `COc1cc2c(cc1-c1cc3cc4ccoc4cc3oc1=O)OCO2`: 0.851; for `NC1(c2ccccc2F)CCCC1`: 0.999.
In turn, `C[N+]1(C)C2CC(OC(=O)[C@@H](CO)c3ccccc3)CC1C1OC12.[Br-]` (some centres undefined) yielded a relative growth of 1.2.
As for `OCC(Br)(Br)Br`, the relative growth was 0.91.
To `CC(C)C[C@H](CN)CC(=O)O` belongs 1.04; to `CN(C)C(=S)SSC(=S)N(C)C`, 0.142; to `CCn1cc(C(=O)[O-])c(=O)c2cc3c(cc21)OCO3.[K+]`, 0.163.
The same measure for `CCC(C)(C)O`: 0.975.
`CC1[C@H](C)OC(=O)CC(O)CC(O)CC(O)CCC(O)C(O)C[C@]2(O)CC(O)C(C(=O)O)C(CC(OC3O[C@H](C)[C@@H](O)[C@H](N)[C@@H]3O)/C=C/C=C/C=C/C=C/CC/C=C/C=C/[C@H](C)[C@H]1O)O2` (some centres undefined) returned a relative growth of 1.03.
`COC(=O)C(c1ccccc1)C1CCCCN1.Cl` (centres undefined) showed a relative growth of 1.29.
`CC(C)(C)C(=O)C(Oc1ccc(Cl)cc1)n1cncn1` (centres undefined): the relative growth came out at 1.02.
The same measure for `COc1cc([C@@H]2c3cc4c(cc3[C@H](O)[C@H]3COC(=O)[C@H]23)OCO4)cc(OC)c1OC`: 0.901; for `C[C@@H](N)Cc1ccco1`: 0.776; for `C[C@@H](N)Cc1cccc(O)c1`: 0.964.
To `CCNC1(c2cccs2)CCCCC1=O.Cl` (centres undefined) belongs 1.13; to `CN1CC2(CNC2)OCCS1(=O)=O`, 0.976.
The same measure for `O=c1cccc2n1C[C@@H]1C[C@H]2CN(CCO)C1`: 1.03.
For `C[N+]1(C)CCCC(OC(=O)C(O)(c2ccccc2)c2ccccc2)C1.[Br-]` (centres undefined), the relative growth is 1.09.
To `Oc1c(Cl)c(Cl)c(Cl)c(Cl)c1Cl` belongs 0.789; to `CN1C(=O)NC(=O)/C(=C\C=C\c2ccco2)C1=O`, 0.859; to `CC1(C)C(C=C(Cl)Cl)C1C(=O)OCc1cccc(Oc2ccccc2)c1` (centres undefined), 0.895.
With `COc1ccc2c(c1)[nH]c1c(C)nccc12`, the relative growth was found to be 0.777.
In turn, `CC1=C2CCC3C(CC[C@]4(C)C(=O)CCC34)[C@@]2(C)CCC1=O` (some centres undefined) gave a relative growth of 0.99.
To `O=[N+]([O-])c1ccc([As](=O)(O)O)cc1` belongs 0.712.
To `CCN(C(C)=O)c1cccc(-c2ccnc3c(C#N)cnn23)c1` belongs 1.11; to `C=CCN1C(=O)NC(=O)/C(=C/c2ccco2)C1=O`, 0.871.
On to `Cl.NCCc1c[nH]c2ccc(O)cc12`, for which the relative growth was found to be 1.02.
Compound `O[C@H]1C2CN3CCN(C2)CC1(c1ccccc1)C3` gave a relative growth of 0.944.
To `CCOC1O[C@@H]2O[C@]3(C)CC[C@H]4[C@H](C)CC[C@@H]([C@H]1C)[C@@]24OO3` (some centres undefined) belongs 1.22.
The compound `NCCc1c[nH]c2ccccc12` returned a relative growth of 0.912.
To `[N-]=[N+]=NCc1ccccc1C[C@]1(C(=O)N2CCOCC2)N=C(c2ccc(OCCCO)cc2)O[C@H]1c1ccccc1N=[N+]=[N-]` belongs 0.97; to `CCOC(OCC)P(=O)(O)CCCN`, 1.07.
The compound `CCn1cc2nc(N3CCNCC3)[nH]cc-2c1=O` gave a relative growth of 1.1.
To `CCC(C)C(=O)O[C@@H]1C[C@@]2(C)[C@H](c3ccoc3)OC(=O)CC23OC2(C)OC34[C@H](OC(=O)C(C)C)[C@@]3(O)[C@@H](OC(=O)C5(C)OC5C)[C@@]5(C)C[C@]3(O)[C@@](C)([C@H]5CC(=O)OC)C14O2` (some centres undefined) belongs 1.05; to `[N-]=[N+]=NCc1ccccc1C[C@]1(C(=O)NCc2ccccc2)N=C(c2ccc(OCCCO)cc2)O[C@H]1c1ccccc1N=[N+]=[N-]`, 1.04.
In turn, `C[C@]12CCC3C(CC[C@H]4C[C@H](O)CC[C@]34C)C1CC[C@@H]2O` (some centres undefined) returned a relative growth of 0.969.
`O=C([O-])c1ccccc1-c1c2cc(Br)c(=O)cc-2oc2[c]([Hg][OH])c([O-])c(Br)cc12.[Na+].[Na+]`: the relative growth came out at 0.5.
The compound `c1ccc(CN2CCNCC2)nc1` registered a relative growth of 0.934.
In the case of `Br.COC(=O)C1=CCCN(C)C1`, the relative growth was found to be 1.03.
To `CCN(C)C(=O)Oc1cccc([C@H](C)N(C)C)c1.O=C(O)[C@H](O)[C@@H](O)C(=O)O` belongs 1.09.
`C[C@]12CCC3[C@@H](CC[C@@]45O[C@@H]4C(O)=C(C#N)C[C@]35C)C1CC[C@@H]2O` (some centres undefined) gave a relative growth of 0.934.
The same measure for `COC(=O)[C@H]1CNCCN1c1ccccc1`: 1.14; for `Cc1cccc(C)c1NC1=NCCCS1`: 0.829.
Regarding `COc1cc2c(cc1OC)[C@@H]1CC(=O)[C@@H](CC(C)C)CN1CC2`, the relative growth is 1.02.
The same measure for `O=C1CCC[C@H]2[C@@H]3CCCN4CCC[C@H](CN12)[C@H]34`: 0.955; for `O=P1(NCCCl)OCCCN1CCCl` (centres undefined): 1.03; for `CC(=O)Oc1ccc(Cl)c2cccnc12`: 0.19.
The same measure for `Oc1ccc(Cl)cc1`: 0.958.
The same measure for `CC(C)c1c(CN(C)C(C)Cc2ccccc2)n(C)n(-c2ccccc2)c1=O` (centres undefined): 1.07; for `CC(C)(C)CC(=O)N1C[C@H]2C[C@@H]1CN2`: 1.
In turn, `OC[C@H]1O[C@@H](Oc2ccc(/C=C/c3cc(O)cc(O)c3)cc2O)[C@H](O)[C@@H](O)[C@@H]1O` showed a relative growth of 1.19.
The same measure for `C[C@@H](O)CN1C[C@H]2C[C@@H](C1)c1cccc(=O)n1C2`: 1.12; for `Cc1cccc(Cc2c[nH]cn2)c1C.Cl`: 0.846.
In the case of `COc1cc2c(cc1OC)C(C)NCC2` (centres undefined), the relative growth came out at 0.894.
In turn, `NC(=O)CN1CCCC1=O` displayed a relative growth of 1.3.
To `Cc1ccc(C)c(C(=O)[C@H](N)CC(C)C)c1` belongs 0.919.
Turning to `C[C@@]12C(=O)OC(=O)[C@]1(C)C1CCC2O1`, the relative growth amounted to 0.928.
As to `C[C@@H]1CC[C@H]2[C@@H](C)C(=O)O[C@@H]3O[C@]4(C)CC[C@@H]1[C@]32OO4`, the relative growth was 0.93.
The same measure for `O=C1NCC2(CNC2)O1`: 0.974.
